The numbers were not newly measured in US5422118A, “Transdermal administration of amines with minimal irritation and high transdermal flux rate” (priority 1992, dated 1995), which cites them from elsewhere.

The conditions of this series: Table 2; cited from earlier work.

Turning to `CN(C)CCC(c1ccc(Cl)cc1)c1ccccn1` (stereo not shown) [chlorpheniramine], the effective blood concentration is 10.6 ng/mL.
